According to patent US5180678A, “Uses of substantially pure interleukin-9 receptor” (Ludwig Institute for Cancer Research, priority 1992, dated 1993):
Blank lines part the entries; values can stand above or below the molecule they belong to.

Target: T1, IL-9R (Mus musculus, UniProt Q01114)
T1 sequence (Q01114 38-468): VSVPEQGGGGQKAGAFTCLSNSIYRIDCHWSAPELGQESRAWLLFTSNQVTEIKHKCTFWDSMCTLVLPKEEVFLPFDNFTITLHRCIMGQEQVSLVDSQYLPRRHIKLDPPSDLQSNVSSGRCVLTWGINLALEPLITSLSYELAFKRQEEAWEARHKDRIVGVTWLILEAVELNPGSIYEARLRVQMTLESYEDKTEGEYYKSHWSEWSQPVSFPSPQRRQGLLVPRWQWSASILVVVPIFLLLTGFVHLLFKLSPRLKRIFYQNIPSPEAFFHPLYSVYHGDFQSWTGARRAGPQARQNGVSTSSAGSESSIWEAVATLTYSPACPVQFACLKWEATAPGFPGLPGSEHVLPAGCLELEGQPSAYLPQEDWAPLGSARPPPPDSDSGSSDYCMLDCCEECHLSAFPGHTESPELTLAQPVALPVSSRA
Assay: Competitive binding of radiolabelled rIL-9 to TS1 cells (specificity of IL-9 binding)
Parameters: a number of different cell types were tested for the presence of the IL-9R molecule; endogenous in cells
Settings: labelled rIL-9 6.1×10^-10 M, 10^6 TS1 cells, 3 h 4° C., no competitor 4083 ± 16
Description: In order to test whether the radioactive IL-9 would bind to TS1 cells which are mouse cells, which are IL-9 dependent, a competitive assay was carried out. Specifically, rIL-9 was incubated with TS1 cells in 140 ul of DMEM containing BSA (10 mg/ml) and Na3 N (10 mM). In order to determine the level of binding, a 100 fold excess of "cold", i.e., non-radiolabelledIL-9, was also mixed with the material. The rIL-9 was admixed at 6.1×10^-10 M, for three hours at 4° C., with 10^6 TS1 cells. Bound material was separated from free ligand via centrifugation over a layer of dibutyl and dioctyl phthalate (15:I). In addition, the experiments were repeated using various interleukins, interferon-γ ("INF-γ"), tumor necrosis factor ("TNF"), and granulocyte, macrophage colony stimulating factor ("GM-CSF"). All experiments were carried out in triplicate.

Bound Radioactivity (competitor 9.3 × 10^-8 M): 4255 ± 237 cpm
Molecule: IL-2: interleukin tested as competitor of IL-9 binding

Bound Radioactivity (competitor 5.0 × 10^-8 M): 4471 ± 7 cpm
B1: IL-3: interleukin tested as competitor of IL-9 binding (protein, UniProt P08700 20-152, looked up)
Interleukin-3: APMTQTTPLKTSWVNCSNMIDEIITHLKQPPLPLLDFNNLNGEDQDILMENNLRRPNLEAFNRAVKSLQNASAIESILKNLLPCLPLATAAPTRHPIHIKDGDWNEFRRKLTFYLKTLENAQAQQTTLSLAIF
